# Experimental data: paper PMC11642940, “A New Demand for Improved Selectivity and Potency of Cyanine Dyes as Antiproliferative Agents Against Colorectal Cancer Cells” (Molecules, 2024)
# By UniProt entry, the sequences of proteins in these tests, tags left out. Where a name states a change or a piece, a line headed by the entry shows the natural chain unless it says otherwise.
# UniProt P11388: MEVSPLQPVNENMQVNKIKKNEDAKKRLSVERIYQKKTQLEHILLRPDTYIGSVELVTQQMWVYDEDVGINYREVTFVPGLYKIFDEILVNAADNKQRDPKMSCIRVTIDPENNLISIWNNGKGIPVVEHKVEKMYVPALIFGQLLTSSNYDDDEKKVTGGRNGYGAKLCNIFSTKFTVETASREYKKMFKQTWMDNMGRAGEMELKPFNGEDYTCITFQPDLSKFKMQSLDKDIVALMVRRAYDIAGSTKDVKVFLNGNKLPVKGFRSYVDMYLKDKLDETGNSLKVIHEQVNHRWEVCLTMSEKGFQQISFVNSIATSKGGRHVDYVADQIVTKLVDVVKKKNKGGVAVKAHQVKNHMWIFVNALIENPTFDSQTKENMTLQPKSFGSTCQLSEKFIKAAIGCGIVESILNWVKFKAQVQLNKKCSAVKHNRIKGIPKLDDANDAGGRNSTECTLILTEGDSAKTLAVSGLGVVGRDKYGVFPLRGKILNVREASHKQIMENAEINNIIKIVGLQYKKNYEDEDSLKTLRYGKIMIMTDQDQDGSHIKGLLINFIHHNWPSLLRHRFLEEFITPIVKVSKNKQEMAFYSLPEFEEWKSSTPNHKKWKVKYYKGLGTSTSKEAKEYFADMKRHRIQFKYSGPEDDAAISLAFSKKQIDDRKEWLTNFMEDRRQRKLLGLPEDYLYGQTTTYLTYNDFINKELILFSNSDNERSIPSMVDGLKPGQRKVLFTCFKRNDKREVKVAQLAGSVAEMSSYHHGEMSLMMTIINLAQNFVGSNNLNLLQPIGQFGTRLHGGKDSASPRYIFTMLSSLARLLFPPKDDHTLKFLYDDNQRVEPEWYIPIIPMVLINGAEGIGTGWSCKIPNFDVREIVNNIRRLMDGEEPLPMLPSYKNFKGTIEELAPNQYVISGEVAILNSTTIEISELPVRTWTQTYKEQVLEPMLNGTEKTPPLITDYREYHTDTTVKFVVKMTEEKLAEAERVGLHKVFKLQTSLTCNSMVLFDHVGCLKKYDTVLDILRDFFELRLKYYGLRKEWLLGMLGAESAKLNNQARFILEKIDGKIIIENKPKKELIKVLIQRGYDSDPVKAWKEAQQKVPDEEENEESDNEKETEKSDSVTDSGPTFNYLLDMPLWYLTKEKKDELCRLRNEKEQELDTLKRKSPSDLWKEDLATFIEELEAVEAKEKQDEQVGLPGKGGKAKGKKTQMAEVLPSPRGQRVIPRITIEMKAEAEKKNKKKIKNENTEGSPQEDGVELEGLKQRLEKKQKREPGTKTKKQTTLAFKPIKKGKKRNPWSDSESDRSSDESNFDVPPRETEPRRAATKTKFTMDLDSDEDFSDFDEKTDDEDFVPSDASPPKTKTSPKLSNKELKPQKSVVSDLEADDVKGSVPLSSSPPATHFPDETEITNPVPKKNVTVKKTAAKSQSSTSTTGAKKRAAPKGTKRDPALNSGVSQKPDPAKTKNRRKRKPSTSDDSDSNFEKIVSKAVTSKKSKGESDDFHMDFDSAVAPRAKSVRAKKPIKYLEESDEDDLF
# Target: T1, topoisomerase II (Topo II) (Homo sapiens, UniProt P11388)
# T1 construct: purchased TopoGEN Inc. (Buena Vista, CO, USA) 1009-1
# Experiment: Topoisomerase II inhibitory assay (pRYG DNA relaxation, agarose gel)
# Format: biochemical
# Conditions: 50 µM, 5.0 units Topo II, 250.0 ng pRYG DNA, mean ± SD of two assays
smiles,measurement,value
"COc1cc([C@@H]2c3cc4c(cc3[C@@H](O[C@@H]3O[C@@H]5CO[C@@H](C)O[C@H]5[C@H](O)[C@H]3O)[C@H]3COC(=O)[C@H]23)OCO4)cc(OC)c1O [VP-16, etoposide, reference compound]",relative intensity of relaxed DNA band (normalized to No drug sample),0.75 ± 0.04
